Data published in ChEMBL document CHEMBL4270561, “Biological activity of doubly modified salinomycin analogs - Evaluation in vitro and ex vivo” (Eur J Med Chem, 2018).

Assay: Cell cycle arrest in human ALL5 cells assessed as accumulation at S-phase at 5 times antiproliferative IC50 after 96 hrs by propidium iodide staining based flow cytometry (reference value: 7.52%)
Assay type: functional

## COc1cccc2c1C(=O)c1c(O)c3c(c(O)c1C2=O)C[C@@](O)(C(=O)CO)C[C@@H]3O[C@H]1C[C@H](N)[C@H](O)[C@H](C)O1 [DOXORUBICIN]
  Activity: 3.91%
